Yeast mating assay 2: variants of the scFv Ab-95

Binding partner: SARS-CoV-2 spike HR2 peptide, sequence PDVDLGDISGINAS.

Ab-95 is the parent antibody, in scFv form: VH, then a (GGGGS)3 linker, then VL. The heavy chain is unchanged in all variants.
VH: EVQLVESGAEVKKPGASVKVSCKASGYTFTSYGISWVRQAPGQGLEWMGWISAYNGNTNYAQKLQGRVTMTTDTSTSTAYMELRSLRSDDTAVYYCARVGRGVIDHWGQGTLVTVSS
VL: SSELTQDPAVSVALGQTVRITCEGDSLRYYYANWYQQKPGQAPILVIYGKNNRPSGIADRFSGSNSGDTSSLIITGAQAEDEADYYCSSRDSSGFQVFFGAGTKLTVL

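The starting antibody came from a phage panning campaign against this peptide. Library AAYL52 holds single substitutions and randomly drawn double and triple substitutions in the CDRs. The scFvs were displayed on barcoded MATa yeast, the peptide on MATalpha yeast. Binding brings cells together so that they mate, and sequencing counts the barcode pairs among the diploids. Read counts were normalised to the haploid input and turned into Kd by a linear fit to BCL2-family pairs of known affinity, for each replicate. There are three technical replicates.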

Substitutions are numbered in sequence along the VL above, starting at 1 (not Kabat).
This list gathers variants with a substitution at R90 (VL, numbered from residue 1).
Numbers give log10(Kd / nM), so 0 is 1 nM and 3 is 1 µM. Smaller is tighter.
Averages over replicates are reported, and they cover detected replicates only.
"nd" means that the variant was in the library but no mating with the target was seen in that replicate; the authors take this as a sign of poor binding, and no number exists.
Empty control strains, which show no peptide, gave a signal in 28% of pairings with library AAYL52; the median was 3.91 and 95% of these signals were weaker than 2.90. No background was subtracted.

For E23W S89K R90C, the assay gave 2.98, 2.94, 2.69 (mean 2.87). With S26R R90W the result was 3.02, nd, nd. For Y30H R90Y Q96H, the assay gave nd, nd, nd. The variant R28D R90Q V97A showed 2.54, 2.72, 2.30 (mean 2.52). With G24L R90S Q96P the result was nd, 3.26, nd. For E23L R90C, the assay gave 2.88, 2.80, 2.83 (mean 2.84).

The variant P54S S55E R90P showed 2.30, 2.47, 2.21 (mean 2.33). The variant P54C R90T showed 3.68, 3.24, 3.44 (mean 3.45). For S26K R90V D91S, the assay gave nd, nd, nd. The variant E23H R90G S92M showed 3.27, nd, nd. The variant K50S R90F S92N showed 3.07, 3.15, 3.68 (mean 3.30). With N51G S89T R90S the result was nd, nd, nd.

The variant G24M K50M R90P gave nd, nd, nd. With G49S N51D R90C the result was 4.99, 4.64, nd (mean 4.81). The variant S88L R90S D91L showed nd, nd, nd. The variant L27Y S88L R90A showed 3.88, 3.73, 3.81 (mean 3.81). The variant G24A Y29H R90D showed 3.42, 3.20, nd (mean 3.31). The variant N33Q S89E R90A showed 3.54, 3.41, nd (mean 3.47).

For D25N L27Y R90M, the assay gave nd, nd, 4.54. For S26G R90Q F95E, the assay gave 2.38, 2.79, 1.76 (mean 2.31). The variant A32K R90L F98N showed nd, 4.17, nd. With S88M R90M F98M the result was 4.87, 3.70, 4.46 (mean 4.34). The variant N52T S55F R90T gave 3.95, nd, nd. The variant L27H S55V R90Q showed nd, 3.67, nd.

For G49E R90I, the assay gave 4.37, nd, nd. The variant D25F R90Q S92V showed 3.54, nd, nd. For Y30C R90A S92W, the assay gave 2.59, 2.42, 3.09 (mean 2.70). With R90F the result was nd, nd, nd. With K50I R90L V97H the result was 4.00, 5.12, 3.03 (mean 4.05). The variant G24L R90W G94R showed 4.10, 3.17, 2.83 (mean 3.37).

With R28T R90W the result was nd, 2.98, nd. The variant Y30I R90K showed 3.80, 4.31, nd (mean 4.05). With G24F R90H D91I the result was 4.39, 5.35, nd (mean 4.87). With D25H N52C R90M the result was 3.64, 4.05, 4.52 (mean 4.07). The variant S89H R90P G94E gave nd, nd, nd. With P54V R90C F95C the result was 3.03, 3.56, 2.79 (mean 3.13).

With S88D R90D Q96N the result was 2.57, 2.54, 2.82 (mean 2.64). For R90E G94V, the assay gave nd, 5.52, nd. With G24F R90E the result was nd, nd, nd. With N33R R90I Q96M the result was 4.31, 4.80, 3.68 (mean 4.26). For N52M P54F R90P, the assay gave nd, nd, nd. With S26G S89K R90W the result was nd, nd, nd.

For R53C R90W G94R, the assay gave 5.29, 4.19, nd (mean 4.74). The variant N52V R90F V97W showed 2.85, 2.44, nd (mean 2.65). For R28A G49L R90Y, the assay gave 3.66, 3.67, nd (mean 3.66). For L27I A32I R90N, the assay gave nd, nd, nd. For G49I K50G R90D, the assay gave nd, 3.64, nd.

Again, the first 6 entries without any signal:

changes	replicates, log10 nM	mean, log10 nM
Y30H R90Y Q96H	nd, nd, nd	nd
S26K R90V D91S	nd, nd, nd	nd
N51G S89T R90S	nd, nd, nd	nd
G24M K50M R90P	nd, nd, nd	nd
S88L R90S D91L	nd, nd, nd	nd
R90F	nd, nd, nd	nd

The measurements come from Engelhart et al. 2022 (doi:10.1038/s41597-022-01779-4) through the FLAb antibody collection.